Measurements published in ChEMBL document CHEMBL3400079 (Bioorg Med Chem, 2015).

Target: T1, AGAP002992-PA (Anopheles gambiae, UniProt Q5TU56)
T1 sequence (Q5TU56 whole entry): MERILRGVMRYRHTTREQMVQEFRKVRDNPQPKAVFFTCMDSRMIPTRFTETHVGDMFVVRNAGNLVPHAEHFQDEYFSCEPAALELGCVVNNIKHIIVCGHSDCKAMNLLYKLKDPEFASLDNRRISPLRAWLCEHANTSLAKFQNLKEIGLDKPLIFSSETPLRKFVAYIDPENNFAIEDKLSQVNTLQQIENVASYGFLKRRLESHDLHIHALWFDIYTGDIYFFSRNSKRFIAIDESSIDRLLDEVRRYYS

## NS(=O)(=O)c1ccc(C(=O)O)cc1 [CARZENIDE]
  Ki: 703 nM
